{
  "sequences": {"note": "By UniProt entry, the sequences of proteins in these tests, tags left out. Where a name states a change or a piece, a line headed by the entry shows the natural chain unless it says otherwise.", "UniProt A0A059WYP6": "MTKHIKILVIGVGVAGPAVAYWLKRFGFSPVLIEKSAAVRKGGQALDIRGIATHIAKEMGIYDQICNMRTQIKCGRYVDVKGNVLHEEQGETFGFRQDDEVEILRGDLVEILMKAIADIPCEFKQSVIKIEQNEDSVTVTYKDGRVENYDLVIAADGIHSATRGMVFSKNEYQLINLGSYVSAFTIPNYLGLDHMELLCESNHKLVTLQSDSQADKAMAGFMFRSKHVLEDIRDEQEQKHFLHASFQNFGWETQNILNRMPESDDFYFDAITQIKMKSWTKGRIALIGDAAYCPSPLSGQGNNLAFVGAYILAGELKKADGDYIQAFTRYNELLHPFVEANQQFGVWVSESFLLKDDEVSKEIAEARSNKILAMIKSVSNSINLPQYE"},
  "source": "paper PMC12467390",
  "about": "(ACS infectious diseases, 2025)",
  "target": "Tet50 (Unknown prokaryotic organism, UniProt A0A059WYP6)",
  "test": "Steady-state TC consumption assay",
  "format": "biochemical",
  "settings": "blue light irradiation",
  "data": [
    {"smiles": "Cc1c2c(c(O)c3c(O)cccc13)C(=O)[C@]1(O)C(=O)C(C(N)=O)=C(O)[C@@H](N(C)C)[C@@H]1C2", "note": "[aTC, anhydrotetracycline]", "values": [
      {"measurement": "Apparent decay constant of IC50 versus pre-incubation time", "value": "0.6 ± 0.2", "unit": "min⁻¹"}
    ]}
  ]
}
